What all share (format): cell-based, human
One experiment relates to SkBr3-TxR cells. The experiment is described as follows: SRB cell viability assay, lapatinib-resistant SkBr3-TxR cells. The procedure:
(§1) FIG. 13 summarizes the data of Tables 32-33 in a graphical format.
Using the cell culture methods described in Examples 2, with the exception that 5000 SkBr3-TxR cells were plated per well, the chemosensitizing effect of LGT-E on lapatinib-treated SkBr3-TxR cells was studied. […] FIG. 14 summarizes the data of Tables 34 and 35 in a graphical format.

In a further experiment the test system is SkBr3 cells. The experiment is described as follows: SRB cell viability assay, lapatinib-sensitive SkBr3 cells. The conditions noted are these: Lapatinib 0.02 μM, no chemosensitizing pre-treatment; background = 0.047. The procedure:
(§2) Cell culture of the above cell lines was performed as described in Example 2, except that 5,000, rather than 3,000 cells were plated per well for the K562, K562/Dox, BT474, SkBr3 lines.
(§3) The chemotherapeutic drugs that were tested for chemosensitization in combination with LTG-E were docetaxel, daunorubicin, Herceptin®, and lapatinib. […] Table 17 also contains the serially-diluted concentrations of drugs that each cell line was tested against.
as §1

The subject of the next experiment is K562 cells. The experiment is described as follows: SRB cell viability assay, daunorubicin-sensitive K562 cells. The conditions noted are these: 72 h, pre-treated with 25 μg/ml LGT-E, background = 0.044. The procedure: as §2, §3
Using the cell culture methods described in Example 2, the chemosensitizing effect of LTG-E on daunorubicin-treated K562 cells was studied. […] Table 36 reports the cell viability data relating to pre-treatment with LTG-E prior to daunorubicin treatment. Table 37 reports control data obtained from cells that were not pre-treated with LGT-E prior to daunorubicin treatment. FIG. 15 summarizes the data of Tables 36 and 37 in a graphical format.

The next experiment has as its system K562/Dox cells. The experiment is described as follows: SRB cell viability assay, daunorubicin-resistant K562/Dox cells. The conditions noted are these: Docetaxel 33.3 nM (so in the source), 72 h, no LGT-E pre-treatment; background = 0.043.

In the case of `CS(=O)(=O)CCNCc1ccc(-c2ccc3ncnc(Nc4ccc(OCc5cccc(F)c5)c(Cl)c4)c3c2)o1` [lapatinib], the “mean A at 565 nm” value with SkBr3-TxR cells (Lapatinib 0.001 μM, 72 h, pre-treated with […] LGT-E, background = 0.044) worked out at 2.214; in the experiment on SkBr3-TxR cells (Lapatinib 0.067 μM, 72 h, no LGT-E pre-treatment (control to Table 34), background = 0.044), 2.207; with SkBr3-TxR cells (Lapatinib 0.067 μM, 72 h, pre-treated with […] LGT-E, background = 0.044), 2.051; in the experiment on SkBr3-TxR cells (Lapatinib 0.067 μM, no chemosensitizing pre-treatment (Table 33), background = 0.047) it was 2.345; in the experiment on SkBr3-TxR cells (Lapatinib 0.2 μM, 72 h, no LGT-E pre-treatment (control to Table 34), background = 0.044), 2.136; in the experiment with SkBr3-TxR cells (Lapatinib 0.67 μM, 72 h, pre-treated with […] LGT-E, background = 0.044), 1.681. The “mean A at 565 nm” value was 2.109 with SkBr3-TxR cells (Lapatinib 0.67 μM, no chemosensitizing pre-treatment (Table 33), background = 0.047) and 2.056 in the experiment with SkBr3 cells.
As for `CC(=O)O[C@@]12CO[C@@H]1C[C@H](O)[C@@]1(C)C(=O)[C@H](O)C3=C(C)[C@@H](OC(=O)[C@H](O)[C@@H](NC(=O)OC(C)(C)C)c4ccccc4)C[C@@](O)([C@@H](OC(=O)c4ccccc4)[C@H]21)C3(C)C` [Docetaxel, docetaxel], the “mean A at 516 nm” value in the experiment with K562 cells (Docetaxel 0.333 nM (so in the source)) was found to be 2.257; in the experiment on K562 cells (Docetaxel 1 nM (so in the source)), 1.547. For the same compound, in the experiment on K562/Dox cells, the “mean A at 565 nm” value amounted to 1.683.

The values are drawn from US10149876B2, “Tripterygium wilfordii extracts to overcome chemotherapy resistance” (WESTERN UNIVERSITY OF HEALTH SCIENCES, priority 2012, dated 2018).
